Only a part is listed here, and it is no random draw. Active and inactive are the calls of the source.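 The calls were made as follows: active = activation of at least 60% and not above a set upper limit (about 1 call in 100 departs from these limits); inconclusive = activation of 40% to 60%, or above that upper limit; inactive = activation under 40%.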
What follows are molecules tested against Probable G-protein coupled receptor 32 (Homo sapiens) (UniProt O75388) (assay: qHTS for Agonists of Human Resolvin D1 Receptor DRV1). Settings: CHO-K1 GPR32 beta-arrestin PathHunter luminescence, 90 min; at 76.9 µM; stronger effect = higher value; zero percent set by DMSO-only wells.
Also: 0% is about no effect.

Amino acid sequences for entries named in this document (tags omitted).
UniProt O75388, whole entry: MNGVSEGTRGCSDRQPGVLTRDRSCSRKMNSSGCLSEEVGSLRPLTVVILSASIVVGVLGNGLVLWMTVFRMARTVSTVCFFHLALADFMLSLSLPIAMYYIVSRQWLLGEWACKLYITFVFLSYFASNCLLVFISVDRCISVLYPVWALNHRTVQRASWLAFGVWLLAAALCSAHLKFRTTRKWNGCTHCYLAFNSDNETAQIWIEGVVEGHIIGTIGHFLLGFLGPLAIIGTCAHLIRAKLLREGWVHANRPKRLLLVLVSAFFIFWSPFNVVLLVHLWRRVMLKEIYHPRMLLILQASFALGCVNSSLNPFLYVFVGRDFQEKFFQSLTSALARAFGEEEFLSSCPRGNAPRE

| Structure (SMILES) | activation |
| --- | --- |
| C/C1=C2N=C(/C=C3N=C(/C(C)=C4\[N-][C@@](C)([C@@H]5N=C1[C@](C)(CCC(=O)NC[C@@H](C)OP(=O)([O-])O[C@H]1[C@@H](O)[C@@H](n6cnc7cc(C)c(C)cc76)O[C@@H]1CO)[C@H]5CC(N)=O)[C@@](C)(CC(N)=O)[C@@H]4CCC(N)=O)[C@@](C)(CC(N)=O)[C@@H]\3CCC(N)=O)C(C)(C)[C@@H]/2CCC(N)=O.[C-]#N.[Co+3] | inactive: -20.9% |
| CCOP(=O)(CC)Oc1ccc([N+](=O)[O-])cc1 (centres undefined) | inactive: -12.2% |
| OCCSCCO | inactive: -0.666% |
| O=[N+]([O-])c1cccc([N+](=O)[O-])c1 | inactive: 13.8% |

Reference: PubChem BioAssay AID1346428 (National Center for Advancing Translational Sciences (NCATS), 2018)
